This is an account of results in patent publication US8906832B2, “Quantitative analysis of carbohydrate-protein interactions using glycan microarrays: determination of surface and solution dissociation constants” (Academia Sinica, priority 2008, dated 2014).

Chains of the proteins cited; added tags and fusions are not shown. Residues count along the entry.
UniProt P02870, 31-210 limits assumed: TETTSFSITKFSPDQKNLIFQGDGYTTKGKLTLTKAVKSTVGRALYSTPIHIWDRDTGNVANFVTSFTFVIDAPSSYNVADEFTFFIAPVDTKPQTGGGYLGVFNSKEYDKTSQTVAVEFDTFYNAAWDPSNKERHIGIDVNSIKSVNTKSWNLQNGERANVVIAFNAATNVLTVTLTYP
UniProt P02870, 218-269 limits assumed: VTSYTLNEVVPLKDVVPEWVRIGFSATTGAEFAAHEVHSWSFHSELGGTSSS

Test [1] concerns the target T1, Con A (Canavalia ensiformis, UniProt P02866). In words: Direct binding assay on glycan microarray, FITC labeled Con A. The settings on record: read-out: mean KD,surf; Man1 printed at 100 to 10 μM; FITC labeled Con A 800 nM to 25 nM; s.d.=4.7 nM.
Test [2] concerns the target T1, Con A. In words: Competitive binding assay on glycan microarray (solution KD / Ki). The settings on record: read-out: solution KD for Con A; competition of free oligomannose with the corresponding oligomannose surface.
Test [3] deals with lectins or antibodies (Lens culinaris, UniProt P02870). In words: Direct binding on glycan microarray, lectin or antibody not named. The conditions noted are these: binding protein not given; for Kd: read-out: KD (dissociation constant, surface).

Regarding `NCCCCCO[C@H]1O[C@H](CO)[C@@H](O)[C@H](O)[C@@H]1O`, the Kd in test [1] stood at 0.083 µM; in test [2], 250 µM; in test [3], 3.19 µM. Further, the “Fmax (maximal fluorescence intensity)” value in test [3] amounted to 9458.
Consider `NCCCCCO[C@H]1O[C@H](CO)[C@@H](O)[C@H](O[C@H]2O[C@H](CO)[C@@H](O)[C@H](O)[C@@H]2O[C@H]2O[C@H](CO)[C@@H](O)[C@H](O)[C@@H]2O[C@H]2O[C@H](CO)[C@@H](O)[C@H](O)[C@@H]2O)[C@@H]1O`, for which, in test [2], the Kd came out at 55 µM. In test [3], the “Fmax (maximal fluorescence intensity)” value was determined as 36070 and the Kd was found to be 0.49 µM.
